Our source for the Kd values is patent US20100099575A1 (MODPRO, published 2010).

The target in test [1] is T1, human carbonic anhydrase II (human, UniProt P00918 2-260). The test is described as follows: surface plasmon resonance, HCAII immobilized, KE2-PL in solution at 40 nM to 10 µM, steady state, 1:1 model.
For test [2], the target named is T1, human carbonic anhydrase II. Nature of the test: fluorescence titration of 1 µM KE2-PL with 5 nM-50 µM HCAII, fit to a bimolecular model.

B1: KE2-PL (KE2 with the dansyl fluorescent probe at Lys15 and the benzenesulfonamide ligand with aliphatic spacer, from active ester Id, at Lys34) (peptide)
chain: NAADLEAAIRHLAEKLAARGPVDAAQLAEQLAKKFEAFARAG
modifications: dansyl on the side chain of Lys15; 4-carboxybenzenesulfonamide coupled through a 6-aminohexanoic acid spacer (from active ester Id) on the side chain of Lys34
notes: Synthetic 42-residue helix-loop-helix peptide
Consider B1, for which the Kd (as a rule, a measure of binding affinity in units of concentration) was determined as 80 nM in test [1] and 20 nM in test [2].
